Experimental data from US12319672B2, “Alpha-D-galactopyranoside derivatives” (Idorsia Pharmaceuticals Ltd, priority 2019, dated 2025).

Amino acid sequences for entries named in this document (tags omitted).
UniProt P17931, whole entry: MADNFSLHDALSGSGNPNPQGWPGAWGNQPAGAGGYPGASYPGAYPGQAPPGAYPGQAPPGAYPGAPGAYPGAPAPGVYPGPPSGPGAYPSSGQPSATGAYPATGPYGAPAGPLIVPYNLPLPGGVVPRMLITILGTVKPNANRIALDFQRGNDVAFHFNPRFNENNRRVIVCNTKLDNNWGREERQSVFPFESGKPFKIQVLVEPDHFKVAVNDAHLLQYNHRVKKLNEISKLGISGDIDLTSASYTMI

Molecular target: human Gal-3 (hGal-3) (Homo sapiens (Human), UniProt P17931)
Assay: Competitive binding assay: binding of biotinylated hGal-3 to microplate-adsorbed asialofetuin (ASF)
Conditions: read-out: Gal-3 IC50; Activity on hGal-3; mean values of several measurements

CO[C@@H]1[C@@H](n2cc(-c3cc(F)c(F)c(F)c3)nn2)[C@@H](O)[C@@H](CO)O[C@@H]1Cc1cc(C2CCS(=O)(=NC(C)C)CC2)no1 (single isomer, unassigned) [1.147] and CO[C@@H]1[C@@H](n2cc(-c3ccc(C)c(F)c3F)nn2)[C@@H](O)[C@@H](CO)O[C@@H]1Cc1cc(C(C)c2ccccc2)no1 (single isomer, unassigned) are within 1.5-fold of each other in IC50: 170 nM for the first, 200 nM for the second.

Going from OC[C@H]1O[C@H](CC2CC(c3ccc(F)cc3)=NO2)[C@H](O)[C@@H](n2cc(-c3cc(F)c(F)c(F)c3)nn2)[C@H]1O (stereo partly shown) to CO[C@@H]1[C@@H](n2cc(-c3cc(F)c(F)c(F)c3)nn2)[C@@H](O)[C@@H](CO)O[C@@H]1Cc1cc(C2CCS(=O)(=NC(C)C)CC2)no1 (single isomer, unassigned) [1.148], the IC50 falls from 700 nM to 59 nM (12-fold).
